# Experimental data taken from patent publication US20080070859A1, “Compounds resistant to metabolic deactivation and methods of use” (priority 2002, published 2008).
# Tests used:
# [1] = HPLC stability analysis: hydrolysis of the prodrug to Cordycepin in phosphate buffer; format: physicochemical; settings: 0.63 mM in 30 mM phosphate buffer (pH 7.3) containing 5% DMSO, 37 C
# Method: To analyze the half-life of thioaminal prodrugs, HPLC stability analysis was performed on the following Cordycepin prodrugs. Solutions (0.63 mM) of each of the following compounds was prepared in 30 mM phosphate buffer (pH 7.3) containing 5% DMSO and incubated at 37 C.
# [2] = test system: Leukemia cell lines (MOLT, HL-69, and CEM/Cl); assay: MTT assay of cell viability, overall comparison with Cordycepin; settings: both in the presence and absence of ADA inhibitor
# Method: The in vitro cytotoxicities of thioaminal prodrugs of Cordycepin were compared to the parent drug Cordycepin using a standard MTT assay of cell viability (Hansen et al. (1989) J. Immunol. Meth. 119:203-10). Leukemia cell lines growing in the exponential phase (MOLT, […], and CEM/Cl) were plated at a final concentration of 1×10^5 cells/ml and exposed to serial dilutions of the Cordycepin prodrugs. In a subset of the experiments (denoted by “+”), the cells were preincubated with 1 μM of the ADA inhibitor 2′-deoxycoformycin for 30 minutes prior to addition of prodrug. Cell viability was determined after incubation for 5 days at 37 C by addition of 3-(4,5-dimethylthizaol-2-yl)-2,5-diplenyl-tetrazolium dye. IC50 was defined as the drug concentration that reduced cell viability 50% in comparison with the appropriate control.
substance,measurement,setting,value
6-N-(4-N-acetylbenzylthio)methyl-Cordycepin [8b],t½ (time point at which half of the Cordycepin prodrug was hydrolysed to Cordycepin),[1],28 h
same,cytotoxic potency compared to Cordycepin,[2],more potent cytotoxic agents than Cordycepin
